Data reported in ChEMBL document CHEMBL4342404, “Anti-cholinesterase hybrids as multi-target-directed ligands against Alzheimer's disease (1998-2018)” (Bioorg Med Chem, 2019).

Tests used:
[1] = target: T1, Acetylcholinesterase (Rattus norvegicus) (UniProt P37136); assay: Potency index, ratio of tacrine IC50 to compound IC50 for rat cortex homogenate acetylcholinesterase
T1 sequence (whole entry): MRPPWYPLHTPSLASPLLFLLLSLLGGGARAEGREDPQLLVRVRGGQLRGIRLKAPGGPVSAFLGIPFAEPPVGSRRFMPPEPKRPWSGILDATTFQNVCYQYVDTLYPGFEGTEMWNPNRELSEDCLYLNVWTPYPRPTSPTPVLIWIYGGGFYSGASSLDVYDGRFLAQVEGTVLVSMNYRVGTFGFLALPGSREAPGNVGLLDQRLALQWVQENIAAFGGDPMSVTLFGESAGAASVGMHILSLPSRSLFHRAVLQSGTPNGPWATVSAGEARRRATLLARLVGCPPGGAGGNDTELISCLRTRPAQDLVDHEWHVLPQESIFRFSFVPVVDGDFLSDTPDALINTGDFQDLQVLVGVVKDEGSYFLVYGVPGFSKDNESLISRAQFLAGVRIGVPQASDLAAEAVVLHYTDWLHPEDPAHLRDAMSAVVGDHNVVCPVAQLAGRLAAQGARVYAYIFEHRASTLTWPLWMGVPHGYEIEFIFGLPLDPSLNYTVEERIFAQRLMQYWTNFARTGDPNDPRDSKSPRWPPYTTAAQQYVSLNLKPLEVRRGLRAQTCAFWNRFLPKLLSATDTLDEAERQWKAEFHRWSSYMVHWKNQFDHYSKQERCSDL

[2] = target: T1, Acetylcholinesterase (Rattus norvegicus); assay: Potency index, ratio of huperzine-A IC50 to compound IC50 for rat cortex homogenate acetylcholinesterase
[3] = target: Acetylcholinesterase and butyrylcholinesterase (AChE and BChE) (Rattus norvegicus) (UniProt P37136+Q9JKC1); assay: Selectivity ratio of IC50 for rat serum butyrylcholinesterase to IC50 for rat cortex homogenate acetylcholinesterase

`O=c1ccc2c([nH]1)CCCC2NCCCCCCCCCCNc1c2c(nc3ccccc13)CCCC2` (stereo not drawn) gave a Ratio IC50 [1] of 25, a Ratio IC50 [2] of 13 and a Ratio IC50 [3] of 9.3.
